Results: patent US20170290806A1, “PCSK9 Inhibitors and Methods of Use Thereof” (Temple University-Of The Commonwealth System of Higher …, priority 2014, published 2017)

Chains of the proteins cited; added tags and fusions are not shown. Residues count along the entry.
UniProt Q8NBP7, 153-692 limits assumed: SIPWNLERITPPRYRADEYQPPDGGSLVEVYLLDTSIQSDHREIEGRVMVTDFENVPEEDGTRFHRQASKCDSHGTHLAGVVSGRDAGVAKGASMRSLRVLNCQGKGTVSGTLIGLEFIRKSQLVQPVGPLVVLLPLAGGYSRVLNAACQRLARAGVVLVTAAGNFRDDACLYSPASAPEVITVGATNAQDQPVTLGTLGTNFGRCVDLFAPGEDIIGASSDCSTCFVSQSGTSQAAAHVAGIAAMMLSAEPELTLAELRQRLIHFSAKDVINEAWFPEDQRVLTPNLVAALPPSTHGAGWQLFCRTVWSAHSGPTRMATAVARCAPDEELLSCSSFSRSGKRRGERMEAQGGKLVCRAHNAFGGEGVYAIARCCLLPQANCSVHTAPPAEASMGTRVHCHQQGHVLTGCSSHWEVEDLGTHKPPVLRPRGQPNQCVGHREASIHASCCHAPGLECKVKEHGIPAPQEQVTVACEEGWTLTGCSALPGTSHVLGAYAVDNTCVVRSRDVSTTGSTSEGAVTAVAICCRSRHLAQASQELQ
UniProt Q8NBP7, 31-152 partner limits assumed: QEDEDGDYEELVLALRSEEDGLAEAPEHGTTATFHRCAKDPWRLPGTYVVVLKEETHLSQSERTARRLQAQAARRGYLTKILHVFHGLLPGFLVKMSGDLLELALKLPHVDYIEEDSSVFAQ

What was measured:
PCSK9/LDLR interaction [1] = target: T1, PCSK9/LDLR interaction (Homo sapiens, UniProt Q8NBP7); experiment: Recombinant cell based assay: LDLR upregulation in HEK293 cells transfected with LDLR and PCSK9; conditions: for increase in the LDLR (intracellular recombinant LDLR upregulation) as comparable to control: compounds 1-50 μM; for IC50s (increase in the LDLR): PCSK9/LDLR HEK293 recombinant cell based assay
Protocol: (§1) HEK-293T cells were seeded into 96 well plates in a DMEM containing 10% Fetal Bovine Serum media and incubated overnight at 37° C. Cells were transiently transfected with LDLR and PCSK9 cDNA constructs using the Lipofectamine-LTX. Compounds (1-50 uM) were added, followed by additional 43 hours of incubation. The cells were lysed and analyzed for LDLR expression and cell viability determined as described in FIG. 7.
as §1, with “8. […] Compound SBC-130,022 has no effect in up-regulating LDLR.” for “7.”
(§2) Considering the difficulty in assaying the LDLR/PCSK9 binding, the approach was to develop and implement an innovative recombinant cell based assay where the full-length PCSK9 and the LDLR genes are expressed into HEK-293 cells, and allowed to decrease the LDLR level by PCSK9 (FIG. 7). Compounds that prevent the LDLR degradation without preventing the auto-processing and secretion of the PCSK9 were selected as potential candidates and were further evaluated using additional cell based assay using endogenously expressed LDLR in liver cells (HepG2 cells).
Preparation of constructs: the human full-length PCSK9 was cloned. The cDNA encoding the PCSK9 sequence with and without a FLAG epitope tag (DYKDDDDK) were cloned by PCR and subcloned into mammalian expression vector containing the cytomegalovirus promoter-enhancer (pCMV-PCSK9-FLAG) (pCDNA3.1/PCSK9). For LDLR, the coding sequence was constructed without tag in mammalian expression vector (pCMV-LDLR) (pCDNA3.1/LDLR). The constructs were confirmed by sequence analysis
The pCDNA3.1/PCSK9, and the pCDNA3.1/LDLR constructs were used to transiently transfect mammalian cells. The human embryonic kidney (HEK)-293 cells were seeded (1×10^5 cells/well) in 24-well plates. Expression plasmids ([…]) were transiently transfected into HEK-293 cells with lipofectamine (Invitrogen) according to the manufacturer's protocol. Twenty four to forty eight hours after transfection, cells were harvested. The cells were then be lysed. Both cell lysate and supernatant were subjected to SDS-PAGE and immunoblot analysis using an anti-PCSK9 or LDLR antibody.
240 compounds identified from the virtual screen in a cell based assay for their potential to upregulate the LDLR in the presence of PCSK9 were tested as described above. Initial screening was done using 50 μM of the compounds. Each compound was added to the cell media in triplicates, and intrecellar LDLR was detected as described above. Each set of compounds were screened at least twice with all appropriate controls. Compounds that upregulate the LDLR were selected for further evaluation.
From the initial screening, 24 compounds were identified as potential hits. Hits confirmation was repeated in triplicates using 50 μM.

PCSK9/LDLR interaction [2] = target: T1, PCSK9/LDLR interaction; experiment: LDLR upregulation in HepG2 cells
Protocol: as §1, with “HepG2” for “HEK-293T”, “MEM” for “DMEM”, “with” for “with LDLR and”, “8.” for “7.”
as §2
The compounds SBC-110,424, SBC-110, 433, and SBC-115,076 were also validated for their ability to up-regulate the endogenously expressed LDLR in HepG2 cells.

[3] = HEK293 cells transfected with LDLR and PCSK9

SMILES	increase in the LDLR (intracellular recombinant LDLR upregulation) as comparable to control (PCSK9/LDLR interaction [1]; [3])	IC50s (increase in the LDLR) (PCSK9/LDLR interaction [1])	up-regulation of endogenously expressed LDLR (PCSK9/LDLR interaction [2]; compounds 1-50 uM)	EC50 (PCSK9/LDLR interaction [2]; read-out: EC50 of up-regulation of LDLR, endogenously expressed LDLR, transfected with PCSK9, compounds 1-50 uM, 43 hours) [nM]	EC50 (PCSK9/LDLR interaction [1]; read-out: EC50 of LDLR up-regulation, HEK293 cells transfected with LDLR and PCSK9, compounds 1-50 uM, 43 hours incubation) [nM]
NC(=O)c1cc(NC(=O)CSc2nnc(-c3ccc(Cl)cc3)n2CC2CCCO2)cc(C(N)=O)c1 (centres unmarked)	concentration dependent increase	low uM range			
CN(C)C(=O)c1ccc(NC(=O)c2cc3ccccc3[nH]2)cc1	concentration dependent increase	low uM range			
CCN(CC)C(=O)c1ccc(NC(=O)CSc2nnc(-c3cccs3)n2C2CC2)cc1	concentration dependent increase	low uM range			
Cc1ccccc1Nc1nnc(SCC(=O)Nc2ccc(C(N)=O)cc2)s1	concentration dependent increase	low uM range			
CNC(=O)c1ccc(NC(=O)c2cc(C)on2)cc1	concentration dependent increase	low uM range			
Cc1ccc(CCc2nc(C(=O)Nc3ccc(C(N)=O)cc3)cs2)cc1	concentration dependent increase	low uM range			
COc1ccc(-n2c(SCC(=O)Nc3ccc(C(N)=O)cc3)nnc2-c2cccc(OC)c2)cc1	concentration dependent increase	low uM range			
COc1cccc(C(=O)Nc2cnn(C(C)(C)C(=O)NCc3ccccc3)c2)c1		low uM range	concentration dependent up-regulation	2900	1600
CC(C)(NC(=O)N1CCC(C(N)=O)CC1)c1cccc(C(C)(C)NC(=O)N2CCC(C(N)=O)CC2)c1	concentration dependent increase	low uM range			
